Experimental data taken from US7119075B2, “Use of herbal agents for potentiation of bioefficacy of anti infectives” (priority 2003, dated 2006).

Experiments:
Assay in all cases: microbe, parasite or virus in culture
S aureus ATCC 29313 = details: Staphylococcus aureus, ATCC29313
[1] = test system: M intracellure ATCC 13950; details: Mycobacterium, ATCC13950
M avium ATCC 49601 = details: Mycobacterium avium, ATCC49601

Work on `O=C(O)c1cn(C2CC2)c2cc(N3CCNCC3)c(F)cc2c1=O` [Ciprofloxacin] yielded an MIC (S aureus ATCC 29313) of 0.5 µg/mL (≈ 1.51 µM).

`CO[C@H]1/C=C/O[C@@]2(C)Oc3c(C)c(O)c4c(O)c(c(/C=N/N5CCN(C)CC5)c(O)c4c3C2=O)NC(=O)/C(C)=C\C=C\[C@H](C)[C@H](O)[C@@H](C)[C@@H](O)[C@@H](C)[C@H](OC(C)=O)[C@@H]1C` [Rifampicin] gave an MIC [1] of 2 µg/mL (≈ 2.43 µM) and an MIC (M avium ATCC 49601) of 2 µg/mL (≈ 2.43 µM).

≈ marks a conversion by molar mass, not a printed value.
